# From PubChem BioAssay AID463218 (Sanford-Burnham Center for Chemical Genomics, 2010)
# This is a selection; strong and weak results do not stand in their true shares. Activity calls are given as the source filed them.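 How the source made its calls: active means inhibition above about 39% in either of two replicate wells at 20 µM (limit read from the data); inactive means the rest.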
# Experiment: tim23-1 mutant yeast growth inhibitors, confirmation, luminescence, single concentration (AID 463218);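 further: temperature-sensitive tim23-1 mutant grown at 25 °C; 0% = DMSO wells with yeast and 100% = medium wells without yeast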
# Conditions: S. cerevisiae tim23-1 growth, BacTiter-Glo luminescence, 24 h; at 20 µM; active compounds read high
row,Compound,inhibition
1,O=[N+]([O-])c1cc([N+](=O)[O-])c(Nc2ccccn2)c([N+](=O)[O-])c1,active: 72.5%
